Results published in ChEMBL document CHEMBL1133756, “A potent aldose reductase inhibitor, (2S,4S)-6-fluoro-2', 5'-dioxospiro[chroman-4,4'-imidazolidine]-2-carboxamide (Fidarestat): its absolute configuration and interactions with the aldose reductase by X-ray crystallography” (J Med Chem, 2000).

Target: Aldo-keto reductase family 1 member B1 (Rattus norvegicus, UniProt P07943)
Experiment: Tested for in vitro inhibition activity against rat Aldose reductase (AR)

## O=C1NC(=O)[C@@]2(CCOc3ccc(F)cc32)N1 [SORBINIL]
  IC50: 900 nM
